Glioma ERSR ind = induces the endoplasmic reticulum stress response in human glioma cells | U87-MG GRP78 promoter luciferase reporter, 16 h | Potency, µM, without a hit: at the highest dose activation, most hits filed as activators | 420,000 tested, 0.02% active; also: potency is read from the fitted curve at half-maximal effect; series mostly up to about 76 µM; % of control where 0% means no effect; nearly all actives have a fitted effect of over 35% in size
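ERSR induction read as luciferase luminescence (Bright-Glo, 10 min at room temperature) in stably transfected human U87-MG glioma cells exposed to compounds for 16 h, using GRP78 as sensor.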
miR-21 reporter = raises the signal of a miR-21 reporter; AID 2288; 340,000 tested, under 10 active; Potency, µM (doses to about 38.3 µM), inactives show at the top dose reporter change, positive = more light; HeLa miR-21 FLuc reporter, luciferase, 48 h; active = well fitted rising curve with a large enough effect; inconclusive = small, poorly fitted or top-dose-only effect; inactive = no such curve, though single readings can be large or run the other way;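 note: % of control where 0% means no effect; miR-21 action dims this reporter so a rising signal means less miR-21 action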
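HeLa cells stably expressing CMV-driven firefly luciferase with a downstream miR-21 binding sequence, endogenously expressing miR-21, were treated with titrations (up to about 40uM final) for 48 hours at 37 degree Celsius. Luciferase luminescence was read after lysis.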
Nrf2 activator = Nrf2 pathway activation. AREc32 ARE-luciferase reporter (MCF7-derived line), luminescence, 24 h. Potency, µM (doses to about 46.1 µM), without a hit: top-dose activation, most hits filed as activators. 410,000 tested, 0.31% active. AID 624171; also: potency is read from the fitted curve at half-maximal effect; % of control where 0% means no effect; nearly all actives have a fitted effect of over 65% in size
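Luciferase luminescence (Steady-Glo, 30 min at room temperature) served as the read-out of ARE activation in AREc32 cells treated with compounds for 24 hr at 37 deg C.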
TSG101-PTAP inh = blocks PTAP/TSG101 interaction to inhibit HIV-1 budding | Q99816 | Fluorescence polarization, FITC-PTAP peptide / Tsg101 binding | Potency, µM (highest dose often 115 µM), for inactives: at the highest dose activity change, negative = inhibition, actives largely listed as inhibitors | 340,000 tested, under 10 active; active = well fitted inhibition curve with a large enough effect in the main read-out, with a control signal flat, not every such curve was filed as active; inconclusive = small, poorly fitted or top-dose-only effect, or effect the other way, or a change in a side signal; inactive = no such curve, though single readings can be large or run the other way; also: potency is read from the fitted curve at half-maximal effect; % of control where 0% means no effect
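Fluorescence anisotropy tracks displacement of a FITC-tagged PTAP peptide (50 nM) from the Tsg101 binding domain (10 uM), following a 20 min room-temperature incubation at pH 7.5.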
A549 viability = counter-screen for Nrf2 inhibitors: cytotoxicity in A549 cells; A549 ARE-Fluc cells, CellTiter-Fluor viability, 18-24 h; Potency, µM (highest dose often 46 µM), without a hit: at the highest dose activity change, negative = cytotoxicity, hits mostly inhibitors; 390,000 tested, 0.16% active; AID 504648; also: potency is read from the fitted curve at half-maximal effect; % is scaled to controls: 0 for no effect and ±100 for the full control effect
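Cytotoxicity counterscreen: CellTiter-Fluor fluorescence was measured in A549 ARE_Fluc cells after 18-24 h of compound exposure in a concentration series. The subsequent BugLite luminescent read reports ARE-luciferase activity.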
Nrf2 block = Nrf2 pathway inhibition | A549 ARE-Fluc reporter, luciferase luminescence, 18-24 h | Potency, µM (highest dose often 46 µM), inactives show at the top dose activity change, negative = inhibition, most hits filed as inhibitors | 360,000 tested, 2.1% active | AID 504444; also: potency is read from the fitted curve at half-maximal effect; % is scaled to controls: 0 for no effect and ±100 for the full control effect; nearly all actives have a fitted effect of over 60% in size
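Concentration-response testing used A549 ARE_Fluc cells at 5000 cells/well. Following an 18-24 h compound incubation, viability was read by fluorescence (Ex 405/Em 525) and luciferase output by luminescence.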
* marks the source's active call; other numbers are inactive results; ? = inconclusive; · = no result. Rows were chosen to be rich in hits. Some 2.1% of all compounds tested hit in one or more screens of this group. Unless noted, calls follow the shape of the dose curve; as a rule, active = well fitted curve in the direction sought with a large enough effect; inconclusive = small, poorly fitted or top-dose-only effect, or another doubt; inactive = no such curve, though single readings can be large; an effect the other way counts as inactive or inconclusive.

Structure	Glioma ERSR ind	miR-21 reporter	Nrf2 activator	TSG101-PTAP inh	A549 viability	Nrf2 block
CCOC(=O)C1CCCN(S(=O)(=O)CCNC(=O)c2cccc(OC)c2)C1 (configuration not stated)	-3%	·	1%	-1%	-2%	18µM*
FC(F)Oc1ccc(-c2csc(=Nc3cccnc3)n2CC2CCCO2)cc1 (configuration not stated)	-1%	26%	1%	-1%	0%	15µM*
COCCCn1c(-c2ccc(S(=O)(=O)N3CCOCC3)cc2)csc1=Nc1ccccc1	-3%	1%	3%	-3%	1%	16µM*
CCn1c(-c2ccc(S(=O)(=O)N3CCOCC3)cc2)csc1=Nc1ccc(C)c(Cl)c1	0%	0%	0%	·	3%	?
Clc1ccc(-c2csc(=Nc3cccnc3)n2CCCn2ccnc2)cc1Cl	-4%	?	-1%	0%	-8%	?
COCCn1c(-c2ccc(Br)cc2)csc1=Nc1cccnc1	-7%	15%	3%	-1%	-15%	18µM*
COc1ccc(N=c2scc(-c3ccc(OC)cc3)n2CCO)cc1	0%	-12%	2%	-5%	-24%	18µM*
O=C(OCc1ccccc1)N1CCN(/[N+]([O-])=N/Oc2ccc([N+](=O)[O-])cc2[N+](=O)[O-])CC1	-11%	·	·	·	·	·
O=C(CCCN1C(=O)/C(=C/c2ccccc2Cl)SC1=S)NCCCN1CCOCC1	-13%	?	5%	-1%	?	15µM*
COc1ccccc1/C=C1\SC(=S)N(CCC(=O)NCCCN2CCOCC2)C1=O	-7%	3%	27%	2%	23µM*	?
O=S(=O)(NCCNCC=Cc1ccc(Br)cc1)c1cccc2cnccc12	-5%	·	·	·	·	·
CCN1CCCC1CNC(=O)c1cnn(-c2nccc(-c3cc(OC)ccc3OC)n2)c1C (configuration not stated)	-6%	·	·	·	·	·
O=C(O)c1cccc(-c2cccc(-c3nn4c(=O)cc(N5CCNCC5)nc4s3)c2)c1	·	·	·	·	-8%	5%
COC(=O)CSc1nc(N)c(C#N)c(-c2ccco2)c1C#N	-2%	-18%	14µM*	0%	-7%	·
CCSc1nc(N)c(C#N)c(-c2ccco2)c1C#N	0%	-31%	11%	-1%	-2%	?
COC(=O)[C@]1(C)CCC[C@@]2(C)C3CC[C@]4(OC(C)=O)C[C@@]3(CCC21)CC4=O (some centres not stated)	-2%	·	1%	·	4%	?
COC(=O)[C@]1(C)CCC[C@@]2(C)C3CC[C@@]4(C)C[C@]3(CCC21)CC(=O)N4Cc1ccc(OC)cc1 (some centres not stated)	-1%	·	0%	·	-7%	15µM*
CCN(CC)S(=O)(=O)c1cc(NC(=O)COC(=O)c2c(C)noc2C)ccc1C	0%	·	0%	-6%	?	21µM*
CN(c1ccccc1)S(=O)(=O)c1cccc(NC(=O)Cc2n[nH]c(=O)c3ccccc23)c1	-4%	·	0%	-19%	-9%	16µM*
CN(c1ccccc1)S(=O)(=O)c1cccc(NC(=O)CSc2ncn[nH]2)c1	-2%	5%	0%	0%	7%	?
CCN(CC)S(=O)(=O)c1cc(NC(=O)Cc2n[nH]c(=O)c3ccccc23)ccc1C	1%	16%	0%	2%	-12%	26µM*
Cc1ccc(NC(=O)Cc2n[nH]c(=O)c3ccccc23)cc1S(=O)(=O)N1CCCCCC1	-4%	·	2%	-5%	-18%	10µM*
CO[C@H]1[C@H](NC(=O)c2ccsc2)c2ccccc2C12CCN(Cc1c(O)ccc3ccccc13)CC2	1%	·	·	·	·	·
NCCCN(Cc1ccc(Cl)c(Cl)c1)c1ccccn1	·	·	·	·	-11%	8%

Reformatted with two lines to a compound: part of the list above.
Each structure is followed by: Glioma ERSR ind, miR-21 reporter, Nrf2 activator, TSG101-PTAP inh, A549 viability, Nrf2 block
> COCCCn1c(-c2ccc(S(=O)(=O)N3CCOCC3)cc2)csc1=Nc1ccccc1
→ -3%, 1%, 3%, -3%, 1%, 16µM*
> COCCn1c(-c2ccc(Br)cc2)csc1=Nc1cccnc1
→ -7%, 15%, 3%, -1%, -15%, 18µM*
> CN(c1ccccc1)S(=O)(=O)c1cccc(NC(=O)CSc2ncn[nH]2)c1
→ -2%, 5%, 0%, 0%, 7%, ?
> COC(=O)[C@]1(C)CCC[C@@]2(C)C3CC[C@@]4(C)C[C@]3(CCC21)CC(=O)N4Cc1ccc(OC)cc1 (some centres not stated)
→ -1%, ·, 0%, ·, -7%, 15µM*

Compound activity deposited in PubChem by National Center for Advancing Translational Sciences (NCATS).
